Reference: BindingDB's records for PubMed 9223589 (University of Tours, 1997)

Protein sequences, listed by entry. Tags and fused reporters are not part of them.
UniProt P23977, whole entry: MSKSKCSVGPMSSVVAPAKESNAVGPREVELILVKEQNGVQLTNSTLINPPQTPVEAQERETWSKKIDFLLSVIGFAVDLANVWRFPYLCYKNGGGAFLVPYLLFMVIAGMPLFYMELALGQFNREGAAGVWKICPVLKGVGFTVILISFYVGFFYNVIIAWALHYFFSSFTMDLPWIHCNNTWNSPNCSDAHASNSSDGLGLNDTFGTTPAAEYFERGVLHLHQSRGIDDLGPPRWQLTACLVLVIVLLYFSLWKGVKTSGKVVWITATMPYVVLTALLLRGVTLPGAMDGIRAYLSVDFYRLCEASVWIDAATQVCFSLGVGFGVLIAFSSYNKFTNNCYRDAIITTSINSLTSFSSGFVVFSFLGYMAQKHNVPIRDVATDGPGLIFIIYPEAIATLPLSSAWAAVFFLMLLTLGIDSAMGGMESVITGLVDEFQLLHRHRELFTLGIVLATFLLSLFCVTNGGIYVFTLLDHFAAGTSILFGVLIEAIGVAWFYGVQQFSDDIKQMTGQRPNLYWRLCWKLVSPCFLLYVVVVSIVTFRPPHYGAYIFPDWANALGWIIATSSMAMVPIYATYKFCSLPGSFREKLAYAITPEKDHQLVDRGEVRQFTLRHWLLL

Biological target: Sodium-dependent dopamine transporter (Rattus norvegicus, UniProt P23977)

Question: How did the Ki turn out when `CNCCC(Oc1ccccc1OC)c1ccccc1` (configuration not stated) [3-(2-methoxyphenoxy)-N-methyl-3-phenylpropan-1-amine] was run?
Answer: 1 µM

Question: How did the Ki turn out when `Fc1ccc([C@@H]2CCNC[C@H]2COc2ccc3c(c2)OCO3)cc1` [PAROXETINE] was run?
Answer: 1 µM
